Experimental data reported in ChEMBL document CHEMBL1138152, “Design and synthesis of novel hydrazide-linked bifunctional peptides as delta/mu opioid receptor agonists and CCK-1/CCK-2 receptor antagonists” (J Med Chem, 2006).

The chains behind the UniProt entries cited, without tags or fusion partners. Where a name states a change or a piece, a line headed by the entry shows the natural chain unless it says otherwise.
UniProt P32239: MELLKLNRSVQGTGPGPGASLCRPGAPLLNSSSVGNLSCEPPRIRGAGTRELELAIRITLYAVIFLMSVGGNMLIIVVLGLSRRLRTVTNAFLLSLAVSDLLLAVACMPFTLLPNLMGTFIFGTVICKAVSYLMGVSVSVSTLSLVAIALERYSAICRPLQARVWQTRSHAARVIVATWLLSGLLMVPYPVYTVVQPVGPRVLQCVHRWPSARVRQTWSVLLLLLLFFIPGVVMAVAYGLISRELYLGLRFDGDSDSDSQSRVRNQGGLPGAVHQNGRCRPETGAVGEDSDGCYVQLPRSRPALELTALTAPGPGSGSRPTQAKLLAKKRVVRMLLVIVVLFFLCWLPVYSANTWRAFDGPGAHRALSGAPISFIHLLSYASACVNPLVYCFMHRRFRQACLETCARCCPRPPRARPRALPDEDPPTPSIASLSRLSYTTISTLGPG
UniProt P32238, whole entry, looked up: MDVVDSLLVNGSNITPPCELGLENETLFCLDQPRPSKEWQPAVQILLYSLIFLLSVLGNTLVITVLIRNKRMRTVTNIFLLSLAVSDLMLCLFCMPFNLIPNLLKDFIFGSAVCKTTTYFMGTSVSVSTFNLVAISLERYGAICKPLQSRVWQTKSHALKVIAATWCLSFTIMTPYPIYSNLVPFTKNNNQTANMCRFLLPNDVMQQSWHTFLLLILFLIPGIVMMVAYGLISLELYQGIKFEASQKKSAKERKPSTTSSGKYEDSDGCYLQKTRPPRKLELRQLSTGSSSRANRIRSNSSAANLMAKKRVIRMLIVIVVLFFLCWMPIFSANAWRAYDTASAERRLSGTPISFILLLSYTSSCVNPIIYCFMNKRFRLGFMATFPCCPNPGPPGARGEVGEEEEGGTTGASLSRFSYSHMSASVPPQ

Target: Cholecystokinin receptor (Homo sapiens) (UniProt P32239+P32238)
Assay: Antagonist activity at CCK receptor by inhibition of CCK8-induced muscle contraction in unstimulated GPI/LMMP
Type: functional
Settings: Cavia porcellus; target entry is the homologue from another species
How it was run: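 Male Hartley guinea pig ileum LMMP strips, 1 g tension, oxygenated Krebs bicarbonate buffer, 37 °C; 67 mM KCl sets maximal contractility. Initial noncumulative CCK-8 dose-response curve built. Test compound added without electrical stimulation; 3 min later the CCK-8 curve was rebuilt at an antagonist dose giving about a 3-fold rightward shift. Ke is the antagonist concentration halving CCK-8 activity.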

SMILES: CCCC[C@H](NC(=O)[C@H](CC(=O)O)NC(=O)[C@H](Cc1ccccc1)NN[C@@H](Cc1ccccc1)C(=O)NCC(=O)N[C@H](C)C(=O)N[C@@H](Cc1ccc(O)cc1)C(=O)O)C(=O)N[C@H](Cc1cn(C(=O)OC2C3CC4CC(C3)CC2C4)c2ccccc12)C(=O)O (stereo partly specified)
- Ke: 150 nM
